Earlier results in patent US20050170004A1, “Nanoparticles for drug delivery” (priority 2003, published 2005).

System: multiple sclerosis
Conditions: literature; cited from earlier work

Substance: Glatiramer acetate [GA]
- tolerability / side effect profile: very well tolerated
